Measured values: patent publication EP1674110A1, “Inhibition of bradykinin release” (priority 1999, dated 2000)

Assays:
[1] = target: [R23S,F25E]HBP (human) (UniProt P20160); assay: scintillation proximity assay, unlabeled BPTI competing with 125I-BPTI for [R23S,F25E]HBP
[2] = target: native human heparin-binding protein (human) (UniProt P20160); assay: scintillation proximity assay, unlabeled BPTI competing with 125I-BPTI for HBP

With “bovine pancreatic trypsin inhibitor (from UniProt P00974 36-93)” the IC50 [1] was 7 nM and the IC50 [2] was 7 nM.
